# Measurements: US20250129135A1, “Multi-Agonist and Use Thereof” (priority 2021, published 2025)
# The chains behind the UniProt entries cited, without tags or fusion partners. Residues count along the entry.
# UniProt P47871, 26-477: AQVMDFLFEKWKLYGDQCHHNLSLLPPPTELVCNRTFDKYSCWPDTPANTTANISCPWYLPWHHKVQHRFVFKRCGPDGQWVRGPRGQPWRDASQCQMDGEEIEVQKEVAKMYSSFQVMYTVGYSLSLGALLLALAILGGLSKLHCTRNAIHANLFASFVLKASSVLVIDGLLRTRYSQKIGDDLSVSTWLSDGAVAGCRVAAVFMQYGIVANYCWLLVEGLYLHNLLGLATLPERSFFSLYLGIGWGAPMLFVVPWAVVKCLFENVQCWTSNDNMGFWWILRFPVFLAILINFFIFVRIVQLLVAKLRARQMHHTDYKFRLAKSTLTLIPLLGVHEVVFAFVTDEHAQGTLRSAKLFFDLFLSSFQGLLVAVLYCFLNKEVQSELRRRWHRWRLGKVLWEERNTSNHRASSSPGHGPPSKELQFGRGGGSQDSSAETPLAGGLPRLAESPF
# UniProt P43220, 24-463: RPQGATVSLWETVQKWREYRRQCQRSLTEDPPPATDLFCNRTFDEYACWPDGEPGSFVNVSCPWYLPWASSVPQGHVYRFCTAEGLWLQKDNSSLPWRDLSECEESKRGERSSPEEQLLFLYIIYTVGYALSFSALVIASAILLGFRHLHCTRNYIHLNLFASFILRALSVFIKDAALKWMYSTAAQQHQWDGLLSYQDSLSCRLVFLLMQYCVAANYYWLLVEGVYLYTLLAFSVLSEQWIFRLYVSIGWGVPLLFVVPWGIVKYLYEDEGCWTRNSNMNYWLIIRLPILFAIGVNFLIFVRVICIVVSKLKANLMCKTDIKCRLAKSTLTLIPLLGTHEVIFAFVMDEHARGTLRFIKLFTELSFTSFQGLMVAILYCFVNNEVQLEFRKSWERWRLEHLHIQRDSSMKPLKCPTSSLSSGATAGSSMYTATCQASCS
# Experiments:
# Human GIP R = biological target: T1, Human GIP R (Homo sapiens, UniProt P48546); assay: cAMP (HTRF) activity in CHO cells stably overexpressing GIP receptor; format: cell-based; settings: EC50 of human GIP / EC50 of compound
# T1 construct: expressed in transfected cells; host or cells: CHO
# T1 sequence (P48546 22-466): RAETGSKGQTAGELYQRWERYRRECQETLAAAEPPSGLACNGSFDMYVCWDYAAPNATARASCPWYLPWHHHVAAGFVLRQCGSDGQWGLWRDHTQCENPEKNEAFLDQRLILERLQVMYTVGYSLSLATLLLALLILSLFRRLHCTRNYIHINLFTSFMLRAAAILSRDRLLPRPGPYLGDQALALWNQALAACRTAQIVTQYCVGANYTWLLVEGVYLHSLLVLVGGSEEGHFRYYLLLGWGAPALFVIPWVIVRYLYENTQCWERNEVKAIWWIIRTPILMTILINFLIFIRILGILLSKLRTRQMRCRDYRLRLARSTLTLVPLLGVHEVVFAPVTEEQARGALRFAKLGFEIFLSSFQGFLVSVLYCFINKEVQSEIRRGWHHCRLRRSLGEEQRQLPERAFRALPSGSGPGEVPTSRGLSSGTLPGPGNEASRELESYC
# Method: (§1) By measuring the cAMP signal response levels of the aforementioned cells, the agonistic activity of individual compound towards the corresponding receptor was determined. The intracellular cAMP content was measured using reagent kit available from Cisbio Corp. based on HTRF (homogeneous time-resolved fluorescence) technology.
# (§2) The cell fluid was transferred to 10 ml of HBSS for resuspension, and centrifuged at 1000 rpm for 5 minutes at room temperature.
# (§3) 10 μL cell suspension was added to each well in the 384 well plate. […] Using the ECHO liquid transfer system, 100 nL of the prepared compound solution was added to the corresponding cell suspensions in the 384 well plate, rotated and shaken at 1000 rpm for 1 minute to mix evenly, and then incubated at room temperature for 60 minutes. 10 μL of detection reagent was added to each well after drug incubation was completed, and incubation was performed in the kit at room temperature for 60 minutes. […] GraphPad Prism 5 plotting software was used to create compound concentration response curves and EC50 (nM) values was calculated.
# Human GCG R = biological target: T2, Human GCG R (Homo sapiens, UniProt P47871); assay: cAMP (HTRF) activity in HEK-293 cells stably overexpressing human GCG receptor; format: cell-based; settings: EC50 of human GCG / EC50 of compound
# T2 construct: expressed in transfected cells; host or cells: HEK-293
# Method: as §1, §2, §3
# [1] = tested on: human primary liver cells; format: cell-based; settings: relative to GCG
# Method: The cAMP levels produced by compounds on human primary liver cells were determined in this experiment. Human primary liver cells were purchased from Lonza (cell product number HUCPG).
# Frozen human primary liver cells were placed in a 37° C. constant temperature water bath for rapid thawing and recovery. The cell solution was transferred to 10 ml of HBSS for resuspension, and centrifuged at 1000 rpm for 5 minutes at room temperature.
# (§4) 10 μL cell suspension was added to each well in the 384 well plate. […] Using the ECHO liquid transfer system, 100 nL of the prepared compound solution was added to the corresponding cell suspensions in the 384 well plate, rotated and shaken at 1000 rpm for 1 minute to mix evenly, and then incubated at room temperature for 60 minutes. 10 μL of detection reagent was added to each well after drug incubation was completed, and incubation was performed for 60 minutes.
# RIN-m5F cells = format: cell-based, rat; settings: relative to GLP-1(7-37)
# Method: This experiment measured the cAMP level produced by the compound on RIN-mF cells.
# Frozen […] cells were placed in a 37° C. constant temperature water bath for rapid thawing and recovery. The cell solution was transferred to 10 ml of HBSS for resuspension, and centrifuged at 1000 rpm for 5 minutes at room temperature.
# as §4, with “to each wells after drug” for “to each well after drug”
# 3T3-L1 adipocytes = settings: relative to GIP
# Method: Mouse 3T3-L1 precursor adipocytes can be induced to differentiate into mature adipocytes. […] After the cells became full and contacted with each other, DMEM differentiation medium containing 20% FBS, 0.5 mM IBMX, 0.4 ug/mL dexamethasone, and 5 ug/mL insulin was used to induce differentiation of 3T3-L1 adipocyte. After 5 days of induction and cultivation, DMEM medium containing […], 4 ug/ml insulin, and 10 uM rosiglitazone was used to continue induction and cultivation for 3 days. Then, DMEM medium containing 10% FBS was used to continue cultivation for 2-3 days to induce mature 3T3-L1 adipocytes.
# The cAMP level produced by the compound on 3T3-L1 adipocytes was determined in this experiment. The tested compound solution was diluted step by step according to a concentration gradient of 3 times, to obtain a total of 10 series of concentration solutions. The solutions were added to induced mature 3T3-L1 adipocytes and incubated at room temperature for 60 minutes. 10 μL detection reagent in the kit was added to each well after drug incubation, and incubated at room temperature for another 60 minutes. […] GraphPad Prism 5 plotting software was used to create compound concentration-effect curves and calculation was performed.
# Human GLP-1R = Human GLP-1R (Homo sapiens, UniProt P43220); assay: cAMP (HTRF) activity in HEK-293 cells stably overexpressing human GLP-1 receptor; format: cell-based; set-up: expressed in transfected cells; host or cells: HEK-293; settings: EC50 of human GLP-1 (7-37) / EC50 of compound
# Method: as §1, §2, §3
smiles,measurement,setting,value
CC[C@H](C)[C@H](NC(=O)[C@H](Cc1ccccc1)NC(=O)[C@H](C)NC(=O)C(C)(C)NC(=O)[C@H](CCC(N)=O)NC(=O)[C@H](C)NC(=O)[C@H](CCCCNC(=O)COCCOCCNC(=O)COCCOCCNC(=O)CC[C@H](NC(=O)CCCCCCCCCCCCCCCCCCC(=O)O)C(=O)O)NC(=O)[C@H](CCCCN)NC(=O)[C@H](CC(=O)O)NC(=O)[C@H](CC(C)C)NC(=O)[C@](C)(CC(C)C)NC(=O)[C@@H](NC(=O)[C@H](CO)NC(=O)[C@H](Cc1ccc(O)cc1)NC(=O)[C@H](CC(=O)O)NC(=O)[C@H](CO)NC(=O)[C@@H](NC(=O)[C@](C)(Cc1ccccc1F)NC(=O)[C@@H](NC(=O)CNC(=O)[C@H](CCC(N)=O)NC(=O)C(C)(C)NC(=O)[C@@H](N)Cc1ccc(O)cc1)[C@@H](C)O)[C@@H](C)O)[C@@H](C)CC)C(=O)N[C@@H](CCC(=O)O)C(=O)N[C@@H](Cc1ccccc1)C(=O)N[C@@H](CC(C)C)C(=O)N[C@@H](CC(C)C)C(=O)N[C@@H](CCC(=O)O)C(=O)NCC(=O)NCC(=O)N1CCC[C@H]1C(=O)N[C@@H](CO)C(=O)N[C@@H](CO)C(=O)NC(C)(C)C(=O)N[C@@H](Cc1c[nH]cn1)C(=O)N1CCC[C@H]1C(=O)N1CCC[C@H]1C(=O)N1CCC[C@H]1C(=O)N[C@@H](CO)C(N)=O [Compound 24],Human GIP R Rel. A (Relative Activity),Human GIP R,2585.71%
same,Human GCG R Rel. A (Relative Activity),Human GCG R,219.23%
same,Rel. A (Relative Activity) on human primary liver cells,[1],1389.64%
same,Rel. A (Relative Activity) on RIN-m5F,RIN-m5F cells,1075.00%
same,Rel. A (Relative Activity) on 3T3-L1 adipocyte,3T3-L1 adipocytes,948.13%
same,Human GLP-1R Rel. A (Relative Activity),Human GLP-1R,880.00%
